# In PubChem BioAssay AID624263 (National Center for Advancing Translational Sciences (NCATS), 2012):
# The entries are a selection whose mix differs from that of the whole data set. Activity calls are given as the source filed them. Calls come from the whole dose curve; as a rule, active = well fitted activation curve with a large enough effect; inconclusive = small, poorly fitted or top-dose-only effect; inactive = flat fitted curve, though single readings scatter; cell line not stated here.
# Test: A Quantitative High throughput Screen to Identify Chemical Modulators of PINK1 Expression; note: % of control where 0% means no effect; nearly all actives have a fitted effect of over 65% in size
# Details: PINK1 immunofluorescence, high-content cytometry, 24 h; series mostly up to 76.6 µM; activation (PINK1 increase): at the top concentration
row,SMILES,activation (PINK1 increase)
1,Nc1ccccc1[As](=O)(O)c1ccccc1,inactive: -0.329%
2,O=C(O)COc1ccc([As](=O)(O)O)cc1[N+](=O)[O-],inactive: 0.778%
3,O=P(Nc1nccs1)(Oc1ccccc1)Oc1ccccc1,inactive: 0.706%
4,O=P(Nc1nccs1)(c1ccccc1)c1nc2ccccc2s1 (stereo not given),inactive: -0.373%
5,CS(=O)(=O)c1cc([N+](=O)[O-])c2no[n+]([O-])c2c1,inactive: 2.35%
6,N#CCCN(C(=O)COC(=O)C(O)(c1ccccc1)c1ccccc1)c1ccc(F)cc1,inactive: -0.365%
7,CN(C(=O)Cc1ccccc1)[C@@H]1CC[C@]2(CCCO2)C[C@H]1N1CCCC1,inactive: 0.873%
8,O=[N+]([O-])c1ccc2c(c1)nnn2O,inactive: 25.3% [at 38.3 µM]
9,CN(C)C(=O)c1cc([N+](=O)[O-])cc2c1-c1c(cc([N+](=O)[O-])cc1[N+](=O)[O-])C2=O,inactive: 0.614%
10,CC1=NCCc2c1[nH]c1ccccc21.O=[N+]([O-])c1cc([N+](=O)[O-])c(O)c([N+](=O)[O-])c1,inactive: -1.34%
11,CN(C(=O)Cc1ccc(Cl)c(Cl)c1)[C@H]1CC[C@@]2(CCCO2)C[C@@H]1N1CCCC1,inactive: -0.745%
12,NC(=O)Nc1ccc([As](=O)(O)O)cc1,inactive: 2.8%
13,Cc1cccc(OCC(=O)OC2CN3CCC2CC3)c1 (stereo not given),inactive: 1.17%
14,O=[As](O)(c1cccc(O)c1)c1cccc(O)c1,inactive: 0.142%
15,Cc1cc(C)cc(OP(C)(=O)Nc2ccc(C)cc2C)c1 (stereo not given),inactive: 5.31% [at 38.3 µM]
16,CCOC(=O)c1ccc(NP(C)(=O)Oc2cc(C)cc(C)c2)cc1 (stereo not given),inactive: 2.45%
17,O=C(OC1CN2CCC1CC2)c1ccc(Cl)cc1 (stereo not given),inactive: -0.128%
18,O=[As](O)(O)c1cccnc1,inactive: 0.794%
19,COc1cc(C(=O)NCC2(N3CCOCC3)CCCCC2)cc(Cl)c1OC(C)C,inactive: 0.279%
20,CS(=O)(=O)c1ccc(Cl)c(NC(=O)COC(=O)C(O)(c2ccccc2)c2ccccc2)c1,inactive: -1.41%
21,COc1ccccc1OP(C)(=O)Nc1cccc(Br)c1 (stereo not given),inactive: 2.02%
22,CCOP(=O)(Nc1cccc2ccccc12)OCC,inactive: 1.58%
23,CP(=O)(Nc1cccc(Br)c1)Oc1ccccc1 (stereo not given),inactive: 0.0758%
24,Nc1cccc2c([As](=O)(O)O)cccc12,inactive: 3.09%
25,Cc1ccc(NCCc2c([N+](=O)[O-])cc([N+](=O)[O-])cc2[N+](=O)[O-])cc1,inactive: 10.2%
26,Cc1ccc(C)c(NP(C)(=O)Oc2ccccc2)c1 (stereo not given),inactive: 1.33%
27,CCCOP(=S)(Nc1nc(N)cc(=O)[nH]1)OCCC,inactive: 0.395%
28,O=P1(N(CCCl)CCCl)NCCC(C(F)(F)F)O1 (stereo not given),inactive: -0.645%
29,CN(Cc1cccnc1)C(=O)COc1ccc(Cl)c(Cl)c1.O=[N+]([O-])c1cc([N+](=O)[O-])c(O)c([N+](=O)[O-])c1,inactive: -0.383%
30,CC(C)(C)C(=O)NC(Sc1ncccn1)C(Cl)(Cl)Cl (stereo not given),inactive: 0.29%
